# Measured affinities in a library of Ab-14 light chain variants

Values reported by Li et al. 2023, doi:10.1038/s41467-023-39022-2 (FLAb copy).

Target peptide (SARS-CoV-2 spike, HR2 region): PDVDLGDISGINAS

Each scFv is VH, a (GGGGS)3 linker, VL, as in the parent Ab-14, and differs from it in the CDRs of the light chain only.
VH: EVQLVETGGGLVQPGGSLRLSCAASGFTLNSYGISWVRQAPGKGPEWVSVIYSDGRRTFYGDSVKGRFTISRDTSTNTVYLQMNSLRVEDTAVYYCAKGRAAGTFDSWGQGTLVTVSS
VL: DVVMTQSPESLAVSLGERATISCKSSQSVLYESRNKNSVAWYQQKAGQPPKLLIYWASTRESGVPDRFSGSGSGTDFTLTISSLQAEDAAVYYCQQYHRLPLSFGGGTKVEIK

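This is the validation round: designs drawn from the data on random variants, tested in the same kind of assay. Several design methods are mixed in this list. Affinity was read by AlphaSeq, a pooled yeast mating assay with surface-displayed partners. The frequency of each diploid, read from paired DNA barcodes, reflects how well the two displayed proteins bind. Each replicate has its own calibration line, from reference interactions of the BCL2 family. The assay was run in six technical replicates.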

Each variant is given by its three light chain CDRs, as the data file delimits them; those of the parent are KSSQSVLYESRNKNSVA, WASTRES, QQYHRLPLS. Kd is apparent (estimated from mating counts) and averaged on the log scale over replicates with a signal. Smaller is tighter. A pair that was not seen in any replicate is written "not detected"; this usually means weak binding, but a binder can also be missed. The authors' rule: three or more of the six replicates give a measured affinity, fewer mean a poor binder. Values of this round are not directly comparable with the first-round values of the same sequences. The parent sequence was in this pool as ten entries: three were never detected, three once, and four in most replicates, with averages from 2.2 nM to 240 nM. Empty control strains, which show no peptide, gave a signal in 4% of pairings with all light chain designs; the median was 430 nM and 95% of these signals were weaker than 38 nM. No background was subtracted. For each scFv, signals with the empty controls are counted beside the result.

Kd	detected	empty controls	CDR-L1	CDR-L2	CDR-L3
5.9 nM	6 of 6	0 of 18	KLSFSVWMESRNKNNVA	HASKRES	QQYHRLPLS
13 nM	6 of 6	0 of 18	KLRQSTKYESRNQNSVA	DASTRES	QQYHRLPLS
210 nM	5 of 6	1 of 18	KISQMYRYEQQNSDSIA	EVTTRLN	QSYHRLPLS
5.1 nM	6 of 6	0 of 18	MVNQIMDHLSKQTNNVA	ETTTREE	QQYDRLPLS
5.4 nM	6 of 6	3 of 18	HFAWPWQSGYVSKQNVA	NASTVMT	QHYNRLPLS
17 nM	6 of 6	2 of 18	NLSQGDMYHFNTRSAVA	NTTMRDF	QQYNRLPLD
960 pM	6 of 6	1 of 18	KLSQSVLYESRNKNSVA	NASTREL	QQYHRLPLS
54 nM	6 of 6	1 of 18	KITQMVTGESHNKNSIA	QMTTREG	QQYHRLPLS
290 pM	6 of 6	0 of 18	KLSNSVLYESRNKNNVA	EASTRES	QQYHRLPLS
1.2 nM	6 of 6	0 of 18	KIGATLNTLYEKANNVA	DLVEREN	QQYFRLPLS
560 pM	6 of 6	4 of 18	KVSGLGLYGQRNKNSVA	EANTRED	QQYHRLPLS
39 nM	6 of 6	0 of 18	KLREVIHVESKQKNNVA	DNSTRES	QDYHRLPLS
1.1 µM	4 of 6	1 of 18	MVTQLMLWGWHAKNSIA	EAQTRVN	QQYDRLPLI
230 nM	6 of 6	2 of 18	KVSEFMKGLMMRTDSIA	DNTTRQQ	QQYDRLPLS
25 nM	6 of 6	0 of 18	KLTSTMRFEQKKKNNIA	EVSMRTK	QQYNRLPLA
380 nM	1 of 6	0 of 18	KLMFSCLYESRMPNSVA	NASTRYS	QQYHRLPLS
1.7 nM	6 of 6	2 of 18	NFGQKMALYTGQRYSIA	DSTVRAD	QQYSRLPLT
870 pM	6 of 6	1 of 18	KLPQSMLYESRNKNSVA	NASQRLS	QQYHRLPLS
11 nM	6 of 6	1 of 18	KVSDMSAFLSRNRNSVA	DNSTRGS	QQYHRLPLS
1.7 nM	6 of 6	0 of 18	KILQSVLYESRNKNSVA	HASTRED	QQYHQLPLS
6.8 nM	6 of 6	0 of 18	RLTEHTSERAYADASVA	DASTRND	QQYHRLPLE
2.5 nM	6 of 6	0 of 18	HLSQSVWYESRNKNSVA	NASTRES	QQYHRLPLS
860 pM	6 of 6	0 of 18	TLTQITGTEKVKGNNVA	EMETRER	QQYNRLPLS
1.6 nM	6 of 6	2 of 18	QIQFESEVGYKDKNSMA	DSECKAA	QQYFQLPLM
not detected	0 of 6	0 of 18	NMQLQVRNGENNKYNIA	AEMKRVY	QQYQRLPLS
2.6 nM	6 of 6	3 of 18	KISQMSGIESITHNSVA	QTSTRES	QQYDRLPLS
870 pM	6 of 6	1 of 18	KLSQSMPYESRNKNSVA	NASTRLS	QQYHRLPLS
1.0 nM	6 of 6	0 of 18	KLSQSDLYESRNSNNVA	MASTRMV	QQYHRLPLS
40 nM	6 of 6	2 of 18	KLDYLNGEMDIGGDSIA	EVSTAGM	QQYWRLPLS
790 pM	6 of 6	0 of 18	KSPQSQLYESRNFNSVA	NASTRED	QQYHRLPLS
not detected	0 of 6	0 of 18	QSSQSVLYESRNKNSVA	WASLRES	QQYHRLPLS
13 nM	6 of 6	3 of 18	KISINQMHYYKMRSNIA	NTSQKAM	QQYFHLPLM
30 nM	3 of 6	0 of 18	KSSQSVLEELRNKNSVA	WASTRES	QQYHRLPLS
670 pM	6 of 6	0 of 18	KLSQSFLYESRMKNSVA	GASQRES	QQYHRLPLS
not detected	0 of 6	0 of 18	KMSQSVLMESRNKNSVA	AASTRES	QQYHRLPLP
330 pM	6 of 6	1 of 18	NIYQAMHTLSQSRNNVA	DVNERGS	QQYFRLPLS
not detected	0 of 6	0 of 18	NVHALMNISSEFQNSIA	DQECRDA	QQYFRLPLS
690 pM	6 of 6	2 of 18	KIGQGVLYESRNWNSVA	GASTRES	QQYHRLPLS
not detected	0 of 6	0 of 18	KSSQSVLYESRNKNSVA	WAVTRES	QQYQRLPLS
3.4 nM	6 of 6	1 of 18	TLWDSIQGGDKAKKNVA	DRQVRMV	QQYYRLPLS
1.2 nM	6 of 6	0 of 18	TLVDWIQGGTWAKKNVA	DESTRVN	QQYYRLPLS
230 nM	3 of 6	0 of 18	KLSMETAWLTGQMDSIA	HVEIRWA	QQYHKLPLI
770 pM	6 of 6	0 of 18	KVSQSVLYEDRNKNAVA	NASQRES	QQYHRLPLS
1.0 nM	6 of 6	1 of 18	SLYEAMQTGKLRTSAIA	DVNQQMR	QQYNRLPLM
460 pM	6 of 6	3 of 18	KLEQGVLYESRNKGSVA	GASVRES	QQYHRLPLS
5.0 nM	6 of 6	1 of 18	MMGGTKTMQSNEIGNVA	DMNERFA	QQYFQLPLS
710 pM	6 of 6	3 of 18	KLQQSWLYESRNKNSVA	NASTRES	QDYHRLPLS
55 nM	6 of 6	0 of 18	MLPESMPQQIDNKNPVA	GAQHTAV	QQYDRLPLT
16 nM	6 of 6	1 of 18	AEDHQEGSGQNSDANVA	QAEQRAP	QQYHHLPLM
1.1 nM	6 of 6	0 of 18	KLSMITGHMQTEKNNVA	EMVTRER	QQYNRLPLA
110 nM	4 of 6	1 of 18	KSLQSVDYESRNKNSVA	WASTRES	QQYHRLPLS
7.5 nM	6 of 6	1 of 18	KLSQSVLYMSENKNSVA	WASTRES	QQYHHLPLS
not detected	0 of 6	0 of 18	KFMISLEYQMAEENAIA	HAEISTV	QQYSRLPID
20 nM	1 of 6	1 of 18	TLYGLMLSMSKNVNNVA	EMTTREK	QQYDRLPLV
1.3 nM	6 of 6	1 of 18	KLSQSVKFESRNKNSVA	DASTRES	QQYHRLPLS
520 pM	6 of 6	0 of 18	KLSQSVLYESRQKNSVA	NASTRMS	QQYHRLPLS
440 pM	6 of 6	0 of 18	KLSQSDLYESRNKNAVA	NASTRES	QQYHRLPLS
570 pM	6 of 6	1 of 18	KLSQSYLYESRNKWSVA	NASTRES	QQYHRLPLS
460 pM	6 of 6	0 of 18	KASQSWGYESRNKWSVA	NASTRES	QQYHRLPLS
4.2 nM	6 of 6	3 of 18	KLSQSTLYDSQNKNSVA	WASTRES	QQYKRLPLS
52 nM	6 of 6	0 of 18	KSSQSFLYESRSKNPVA	GASTRES	QQYHRLGLS
3.8 nM	6 of 6	0 of 18	TISTSALYESTNKNNVA	ELSTRGS	QQYERLPLS
930 pM	6 of 6	0 of 18	MISDLTMYGSRNVNSVA	DLSTRGN	QQYHRLPLS
98 nM	4 of 6	1 of 18	QLEFRDVQGTANWHAIA	EASQLGQ	QQYFHLPLG
not detected	0 of 6	0 of 18	TISQMTSLFSQSINNVA	EVSMREK	QQYDRLPLS
2.4 nM	6 of 6	4 of 18	KLRTVTGTEKVKGNNVA	EMETRER	QQYNRLPLS
47 nM	2 of 6	0 of 18	KSSQSGLYESRNKNSVA	WASTREY	QQYHRLPLS
5.0 nM	6 of 6	0 of 18	MFSQSVMYGSFYRNSVA	QTSTREN	QQYDRLPLS
560 pM	6 of 6	0 of 18	KLSQSVLYESRNKNSVA	EASTKES	QQYHRLPLS
17 nM	5 of 6	0 of 18	KLPQSVDYESRNKNSVA	NASTRES	QQYHRLPLS
1.1 nM	6 of 6	1 of 18	YLSQSVLYESRNKNSVA	HASTRES	QQYHRLPLS
1.9 nM	6 of 6	1 of 18	KLYQNVGTMSMNKQSIA	DMERRED	QQYHRLPLS
1.5 nM	6 of 6	2 of 18	MISDMGLHDSRIRNSVA	NNSTREA	QQYDRLPLS
not detected	0 of 6	0 of 18	IVSQLFLWGMHAKNSIA	EAELRLN	QQYDRLPLF
19 nM	6 of 6	1 of 18	HISNMQAYAYSAKNSVA	DNETKLN	QQYIRLPLT
8.7 nM	6 of 6	0 of 18	IVSQLMLWGYHAKNSIA	EAETRPN	QQYDRLPLM
87 nM	3 of 6	1 of 18	KSSESVLYESRNKNSVA	WASTREN	QQYHRLPLS
520 pM	6 of 6	1 of 18	FLSQSWLYESRNKNSVA	GGNTRES	QQYHRLPLS

The last 5 entries again:

CDR-L1,CDR-L2,CDR-L3,Kd,detected,empty controls
IVSQLFLWGMHAKNSIA,EAELRLN,QQYDRLPLF,not detected,0 of 6,0 of 18
HISNMQAYAYSAKNSVA,DNETKLN,QQYIRLPLT,19 nM,6 of 6,1 of 18
IVSQLMLWGYHAKNSIA,EAETRPN,QQYDRLPLM,8.7 nM,6 of 6,0 of 18
KSSESVLYESRNKNSVA,WASTREN,QQYHRLPLS,87 nM,3 of 6,1 of 18
FLSQSWLYESRNKNSVA,GGNTRES,QQYHRLPLS,520 pM,6 of 6,1 of 18